## Ab-14 heavy chain CDR variants: yeast mating affinities

Antigen: PDVDLGDISGINAS, a 14-residue peptide of the SARS-CoV-2 spike HR2 region.

The variants keep the light chain, the linker and the frameworks of Ab-14 (scFv order VH, a (GGGGS)3 linker, VL).
VH: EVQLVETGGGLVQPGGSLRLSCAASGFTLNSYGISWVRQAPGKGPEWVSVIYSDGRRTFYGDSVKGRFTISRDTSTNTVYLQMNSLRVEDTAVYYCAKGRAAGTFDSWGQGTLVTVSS
VL: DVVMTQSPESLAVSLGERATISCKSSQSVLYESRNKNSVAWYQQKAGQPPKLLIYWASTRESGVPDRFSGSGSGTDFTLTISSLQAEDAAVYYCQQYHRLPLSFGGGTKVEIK

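These sequences belong to a second round, designed from the earlier measurements on random variants of the parent. Group labels follow the data file (En: ensemble of fine-tuned language models; HC: hill climbing; Gen: genetic algorithm; Gibbs: Gibbs sampling; a sequence that several methods proposed may carry one label only). Affinity was read by AlphaSeq, a pooled yeast mating assay with surface-displayed partners. Pairs that bind mate more often; barcode pairs of the diploids are counted by sequencing. Scores were corrected for input abundance and mapped to Kd with protein pairs of known affinity run in the same pool. There are six technical replicates.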

The parent's heavy chain CDRs are GFTLNSYGIS, VIYSDGRRTFYGDSVK, GRAAGTFDS; each variant's own CDRs replace them letter for letter. This list holds designs with more than six substitutions. Values are apparent Kd, the geometric mean of the replicates that gave a signal; lower means stronger binding. A pair that was not seen in any replicate is written "nd"; this usually means weak binding, but a binder can also be missed. The list is sorted by this average, lowest first, undetected variants last. Empty control strains, which show no peptide, gave a signal in 1% of pairings with all heavy chain designs; the median was 120 nM and 95% of these signals were weaker than 7.0 nM. No background was subtracted.

The variant GFDLNEYGIS / VIYADGRRTAYADSVK / GQVAGTFDM [En_HC] showed 140 pM (6 of 6 replicates). With GFDLNEYGIS / VIYADGRRTFYTDSVK / GEVAGTFDK [En_HC] the result was 170 pM (6 of 6 replicates). With GFDIDEYGIS / VIYADGRRTFYADSVK / GQNAGTFDV [En_HC] the result was 170 pM (6 of 6 replicates). The variant GFDLDEYGIS / VIYADGRRTAYADSVK / GENAGTFDQ [En_Gen] showed 190 pM (6 of 6 replicates). With GFDLNEYGIS / VIYADGMRTAYSDKVK / GGNAGTFDV [En_Gen] the result was 200 pM (6 of 6 replicates). With GFNLDEYGIS / VIYADGRRTFYADSVK / GEVAGTFDF [En_HC] the result was 260 pM (6 of 6 replicates). The variant GFDLDEYGIS / VIYADGMRTFYADSVK / GNLAGTFDV [En_HC] gave 280 pM (6 of 6 replicates). The variant GFNLNEYGIS / VIYADGRRTAYADSVK / GQQAGTFDM [En_HC] showed 310 pM (6 of 6 replicates). The variant GFDLNEYGIS / VIYADGQRTAYVDSVK / GNVAGTFDL [En_Gen] gave 320 pM (6 of 6 replicates).

The variant GFDLNEYGIS / VIYADGQRTAYSDSVK / GNQAGTFDV [En_Gen] showed 330 pM (6 of 6 replicates). The variant GFDLNEYGIS / VIYADGRRTAYSDDVK / GNVAGTFDV [En_Gen] gave 340 pM (6 of 6 replicates). For GFDINEYGIS / VIYADGRRTFYADSVK / GQTAGTFDA [En_HC], the assay gave 380 pM (6 of 6 replicates). The variant GFDLNEYGIS / VIYADGSRTVYADSVK / GNVAGTFDL [En_Gen] gave 380 pM (6 of 6 replicates). The variant GFDLNEYGIS / VIYADGRRTAYSDSVK / GEIAGTFDQ [En_HC] showed 430 pM (6 of 6 replicates). With GFDLNEYGIS / VIYADGIRTFYADSVK / GNHAGTFDV [En_HC] the result was 440 pM (6 of 6 replicates). With GFQLDEYGIS / VIYADGRRTAYQDSVK / GEVAGTFDV [En_HC] the result was 440 pM (6 of 6 replicates). The variant GFDLNEYGIS / VIYADGMRTAYTDDVK / GNNAGTFDI [En_Gen] gave 640 pM (6 of 6 replicates). The variant GFNLEDYGIS / VIYADGRRTFYTDSVK / GKVAGTFDV [En_HC] showed 680 pM (6 of 6 replicates).

The variant GFDLNEYGIS / VIYADGQRTAYADSVK / GDAAGTFDS [En_HC] showed 800 pM (6 of 6 replicates). The variant GFDLNEYGIS / VIYADGRRTFYKDSVK / GTNGGTFDV [En_HC] gave 840 pM (6 of 6 replicates). With GFDLNEYGIS / VIYADGRRTQYIDSVK / GNQAGTFDE [En_HC] the result was 870 pM (6 of 6 replicates). The variant AFNIEDYGIS / VIYADGVRAMYVESVK / GGIAGTFDI [En_Gibbs] gave 18 nM (6 of 6 replicates). The variant GFDLNEYGIS / VIYADGRRTFYSDSVK / GEIAGTFDT [En_HC] showed 51 nM (2 of 6 replicates). The variant GFDIEEYGIS / VIYADGIRQAYKDKVK / GWDVGRFSV [En_Gibbs] showed 1.4 µM (2 of 6 replicates). The variant GFDLNEYGIS / VIYADGRRTFYTDNVK / GEVAGTFDL [En_HC] showed nd (0 of 6 replicates). The variant GFDLKEYGIS / VIYADGSRTAYSKNVK / GEFDDMVLV [En_Gibbs] gave nd (0 of 6 replicates). With GFDLEKYGIS / VIYADGRRSVYADDVK / GMLGATNGY [En_Gibbs] the result was nd (0 of 6 replicates).

The variant GKLIDEYGIS / VIYADGQRKAYQDNVK / GNVSSLGSV [En_Gibbs] gave nd (0 of 6 replicates). With GDDLDEVGIS / VIYADGVRNQYIQSVK / GHVGGTFDY [En_Gibbs] the result was nd (0 of 6 replicates). For GFDLNEYGIS / VIYADGHRTKYSNNVK / GGQADIALL [En_Gibbs], the assay gave nd (0 of 6 replicates). With GNDLQEYGIS / VIYADGQRVNAVSQVK / GEQAGTFKL [En_Gibbs] the result was nd (0 of 6 replicates). With GNTLNEYGIS / VIYADGIRKQYSDNVK / GMNADTFDQ [En_Gibbs] the result was nd (0 of 6 replicates).

Excerpt, the first 3 entries:

Variant GFDLNEYGIS / VIYADGRRTAYADSVK / GQVAGTFDM [En_HC] showed 140 pM (6 of 6 replicates).
Variant GFDLNEYGIS / VIYADGRRTFYTDSVK / GEVAGTFDK [En_HC] showed 170 pM (6 of 6 replicates).
Variant GFDIDEYGIS / VIYADGRRTFYADSVK / GQNAGTFDV [En_HC] showed 170 pM (6 of 6 replicates).

The range of this assay differs from that of the first round, and the authors advise against merging the two. The authors averaged sequences with at least three values out of six and counted those with two or fewer as poor binders. Of ten entries with the parent sequence, four were seen in most replicates (averages 2.2 nM to 240 nM), three in one and three in none, so single entries are noisy.

Reference: Li et al. 2023, doi:10.1038/s41467-023-39022-2. File: FLAb, binding data.